Species on record: Rattus norvegicus
Assay: Selectivity index, ratio of IC50 for Sprague-Dawley rat brain heme oxygenase-2 to IC50 for Sprague-Dawley rat spleen heme oxygenase-1
Type: tissue-based

First: Clc1ccc(CC[C@@]2(Cn3ccnc3)OC[C@@H](CSc3ccc4ccccc4c3)O2)cc1
Second: Clc1ccc(CC[C@@]2(Cn3ccnc3)OC[C@@H](CSc3ccc(Cl)cc3)O2)cc1
The Ratio IC50 of the first is higher: 30 for the first, 4.3 for the second.

First: Fc1ccc(SC[C@@H]2CO[C@@](CCc3ccc(Cl)cc3)(Cn3ccnc3)O2)cc1
Second: O=[N+]([O-])c1ccc(SC[C@@H]2CO[C@@](CCc3ccc(Cl)cc3)(Cn3ccnc3)O2)cc1
The Ratio IC50 of the first is lower: 2 for the first, 3 for the second.
